Measured values: US20230112865A1, “RIP1 INHIBITORY COMPOUNDS AND METHODS FOR MAKING AND USING THE SAME” (Rigel Pharmaceuticals, Inc., priority 2019, published 2023)

Sequences of proteins named here, by UniProt entry; tags and fusion partners are left off.
UniProt Q13546, whole entry, species assumed: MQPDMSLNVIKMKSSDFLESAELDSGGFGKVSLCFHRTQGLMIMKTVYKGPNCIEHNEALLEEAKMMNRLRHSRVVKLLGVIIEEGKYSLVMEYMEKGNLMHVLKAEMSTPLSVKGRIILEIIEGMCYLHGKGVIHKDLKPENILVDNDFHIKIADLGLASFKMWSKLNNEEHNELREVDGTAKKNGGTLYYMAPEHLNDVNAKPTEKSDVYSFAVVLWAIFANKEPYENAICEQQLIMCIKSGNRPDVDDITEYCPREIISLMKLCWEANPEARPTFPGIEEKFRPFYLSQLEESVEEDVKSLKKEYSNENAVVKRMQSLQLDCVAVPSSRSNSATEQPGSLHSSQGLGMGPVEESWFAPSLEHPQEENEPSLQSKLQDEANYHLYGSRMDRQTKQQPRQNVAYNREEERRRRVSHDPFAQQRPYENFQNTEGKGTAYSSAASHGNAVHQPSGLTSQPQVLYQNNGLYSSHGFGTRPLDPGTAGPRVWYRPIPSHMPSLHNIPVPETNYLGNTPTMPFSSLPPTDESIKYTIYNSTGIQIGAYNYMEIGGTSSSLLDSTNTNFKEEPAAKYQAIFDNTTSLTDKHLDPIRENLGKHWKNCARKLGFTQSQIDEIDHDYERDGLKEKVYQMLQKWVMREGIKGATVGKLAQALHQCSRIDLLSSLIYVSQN

Molecular target: RIPK1 (Homo sapiens, UniProt Q13546)
Assay: biochemical

SMILES: CN1C(=O)[C@@H](NC(=O)n2cc(Cc3ccc(F)cc3F)cn2)COc2ccc(C#CC(C)(C)CO)cc21 [Compound I-239, (S)-4-(2,4-Difluorobenzyl)-N-(7-(4-hydroxy-3,3-dimethylbut-1-yn-1-yl)-5-methyl-4-oxo-2,3,4,5-tetrahydrobenzo[b][1,4]oxazepin-3-yl)-1H-pyrazole-1-carboxamide]
- IC50: 43.4 nM
